# In article PMC7939391, “[4Fe-4S] cluster trafficking mediated by Arabidopsis mitochondrial ISCA and NFU proteins” (The Journal of Biological Chemistry, 2021):
# Target: T1, ACO2 (Arabidopsis thaliana, UniProt Q94A28)
# T1 sequence (Q94A28 98-995): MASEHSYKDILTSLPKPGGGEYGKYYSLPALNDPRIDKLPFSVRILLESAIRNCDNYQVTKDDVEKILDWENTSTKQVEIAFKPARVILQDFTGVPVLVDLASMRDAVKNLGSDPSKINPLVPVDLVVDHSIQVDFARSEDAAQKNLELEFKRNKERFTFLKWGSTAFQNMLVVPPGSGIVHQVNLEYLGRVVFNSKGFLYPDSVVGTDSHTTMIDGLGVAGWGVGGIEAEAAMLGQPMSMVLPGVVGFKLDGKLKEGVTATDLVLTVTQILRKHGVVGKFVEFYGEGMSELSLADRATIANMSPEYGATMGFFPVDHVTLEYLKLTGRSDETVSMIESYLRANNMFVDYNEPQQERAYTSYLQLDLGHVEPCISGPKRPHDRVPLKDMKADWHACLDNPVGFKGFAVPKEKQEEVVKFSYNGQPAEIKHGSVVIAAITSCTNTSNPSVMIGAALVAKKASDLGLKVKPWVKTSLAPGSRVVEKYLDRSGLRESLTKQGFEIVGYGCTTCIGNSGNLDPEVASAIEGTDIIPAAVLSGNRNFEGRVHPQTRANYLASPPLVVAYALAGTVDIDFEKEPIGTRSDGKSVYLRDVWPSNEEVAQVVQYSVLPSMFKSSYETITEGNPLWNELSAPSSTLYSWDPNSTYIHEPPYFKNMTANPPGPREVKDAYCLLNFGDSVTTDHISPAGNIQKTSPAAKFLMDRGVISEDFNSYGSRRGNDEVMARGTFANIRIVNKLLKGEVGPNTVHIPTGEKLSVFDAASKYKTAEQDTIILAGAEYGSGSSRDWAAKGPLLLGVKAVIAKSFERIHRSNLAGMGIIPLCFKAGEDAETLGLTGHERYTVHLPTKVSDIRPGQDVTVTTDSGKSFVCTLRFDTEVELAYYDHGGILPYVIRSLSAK
# Details: apo-ACO2 2.4 uM; cluster from ISCA1a/2, NFU4 or NFU5; anaerobic, pH 7.8, room temperature; one cluster per monomer
structure (smiles),measurement,value
[S]12[Fe]3[S]4[Fe]1[S]1[Fe]2[S]3[Fe]41 [[4Fe-4S]^2+ cluster],"activation of apo-enzyme, aconitase activity at 240 nm",reconstituted samples of ACO2 containing one [4Fe-4S] cluster per protein monomer
